# Yeast UUG start = modulators of start codon recognition fidelity in yeast; S. cerevisiae UUG-firefly luciferase reporter, luminescence/redox ratio; activity score, % at 18.7 µM; hit rate 0.13% among 350,000; AID 602363;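 active = replicate mean at a twofold rise or more, about +100% in these data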;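 note: firefly luciferase made from a UUG start codon reports start codon fidelity; reporter light over untreated wells divided by growth signal over untreated wells; some hits fall short of that in this replicate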
# Tn6 DDE FP = inhibitors of Tn6 peptide binding to human fibrin DD(E) | 370,000 tested, 0.21% active | inhibition, % at 8.3 µM | P02675 | Fibrin DD(E) TRITC-Tn6 fluorescence polarization displacement;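 active = inhibition above a per-campaign cutoff: mean of compounds within control limits plus 3 SD, cut at about 15% in these data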;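 also: 0% = median of all compound wells on the plate and 100% = blocking peptide control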
# PglD inh = inhibitors of Campylobacter jejuni PglD acetyltransferase; purified PglD enzyme, DTNB colorimetric CoA detection; inhibition, % at 12.5 µM; 360,000 tested, 0.098% active; in the data active = inhibition above about 16%, passing the limit was not always enough
# DDE Tn7 FP inh = DD(E)-Tn7 binding inhibition, primary FP screen | P02675 | FP displacement of FITC-Tn7 peptide from fibrin DD(E); 0% = median of compound wells per plate | inhibition, % at 8.3 µM | 370,000 tested, 0.13% active;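 active = inhibition above the mean of compounds falling within the control limits plus 3 SD of them, cut at about 14% in these data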;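 also: 0% = plate median of compound wells and 100% = 10 µM Aha-Tn7 peptide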
#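 Assay system: Human fibrin DD(E) protein | Medium: Tris buffer with calcium and detergent, pH 7.8 | Reagent: 0.1 µM fluorescent Tn7 | Compound dosing: Single point at 8.3 µM | Times: 10 min preincubation, 3 h with tracer, room temperature | Detection: Fluorescence polarization of the labelled Tn7 tracer | Controls: Aha-Tn7 high control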
# Tn7 DDE conf = confirmation of inhibitors of Tn7 binding to human fibrin DD(E); shares compounds with DDE Tn7 FP inh; 460 tested, 5% active; FP displacement of TRITC-Tn7 peptide from DD(E); 0% set at plate's compound-well median; inhibition, % at 8.3 µM;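 active = inhibition above the campaign cutoff, the mean of compounds within control limits plus 3 SD, cut at about 14% in these data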;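 also: 100% = median FP of high control wells holding Aha-Tn7 inhibitor peptide; displacers lower polarization since freed probe rises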
# Tn7 DDE ctr = counter-screen hit for Tn7 peptide-fibrin DD(E) binding disruption. shares compounds with DDE Tn7 FP inh. TRITC-Tn7 probe displacement, fluorescence polarization. inhibition, % at 8.3 µM. 460 tested, 3% active;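 active = inhibition above the cutoff, the mean of compounds lying between the control bounds plus 3 SD of those compounds, cut at about 17% in these data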;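 also: 0% = median of compound sample wells and 100% = excess unlabeled Aha-Tn7 peptide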
# * marks the source's active call; other numbers are inactive results; . = no result given. Compounds with a hit are over-represented: about 0.45% of the library has one in this group of screens.
SMILES,Yeast UUG start,Tn6 DDE FP,PglD inh,DDE Tn7 FP inh,Tn7 DDE conf,Tn7 DDE ctr
C[C@H]1CN([C@@H](C)CO)C(=O)c2cc(NS(=O)(=O)c3ccc(Cl)cc3)ccc2O[C@@H]1CN(C)Cc1ccc(C(F)(F)F)cc1,2,.,.,.,.,.
COCC(=O)Nc1ccc2c(c1)[C@@H]1C[C@H](CC(=O)NCc3ccccc3OC)O[C@H](CO)[C@@H]1O2,-10,.,1,.,.,.
Cc1cc(C)n(-c2nc3ccccc3c(=O)n2OCC(=O)N(C)C)n1,-9,-6,0,4,.,.
Cc1cc(C)n(-c2nc3ccccc3c(=O)n2OCC(=O)Nc2c(C)cccc2C)n1,-13,2,4,16*,-15,-12
O=C(O)c1cc(=O)c2c(Cl)cc(Cl)cc2[nH]1,-2,-3,0,-8,.,.
O=C(O)c1cc(=O)c2ccccc2[nH]1,-21,2,-3,14*,-6,-8
C[C@@H]1CN([C@H](C)CO)C(=O)c2cc(NC(=O)c3ccccc3)ccc2O[C@@H](C)CCCCO[C@@H]1CN(C)C(=O)CCC(F)(F)F,11,.,4,.,.,.
Cc1ccc(C(C(=O)NCC2CCCO2)N(Cc2ccccc2F)C(=O)Cn2nnc(-c3cccs3)n2)cc1 (stereo not given),-12,1,1,19*,10,6
O=C(NC1CCCC1)C(c1ccncc1)N(CC1CCCO1)C(=O)Cn1nnc(-c2cccs2)n1 (stereo not given),7,7,-1,-4,.,.
COC(=O)c1ccc(Cn2c(C)c(C(=O)NCc3ccc(C#N)cc3)sc2=O)o1,-14,-4,-3,14*,5,-1
COC(=O)c1ccc(Cn2c(C)c(C(=O)NCc3ccc(Cl)c(Cl)c3)sc2=O)o1,-1,-2,5,1,.,.
O=C(C[C@@H]1CC[C@@H]2[C@H](COC[C@H](O)CN2S(=O)(=O)c2cccc(Cl)c2)O1)N1CCCCC1,.,.,-33,.,.,.
COc1ccc(/C=C/C(=O)OCC(=O)NC(C)CCc2ccccc2)cc1OC (stereo not given),8,7,-8,14*,1,-2
CCc1c(C)nc2ncnn2c1NCc1cccs1,-11,-2,-1,-4,.,.
FC(F)(F)c1cc(NCc2cccs2)n2ncnc2n1,-12,5,-1,15*,-6,-9
CC(=O)Nc1cc(-c2ccccc2N(C)C)cn2c(-c3ccc(S(C)(=O)=O)cc3)cnc12,-2,4,0,26*,-5,-5
C[C@@H]1CCCCO[C@H](CN(C)CC2CC2)[C@H](C)CN([C@@H](C)CO)C(=O)c2cc(NC(=O)Cc3ccccc3)ccc2O1,.,.,8,.,.,.
C[C@H](CO)N1C[C@H](C)[C@@H](CN(C)C(=O)NC2CCCCC2)Oc2ccc(NC(=O)CCC(F)(F)F)cc2CC1=O,28,.,-5,.,.,.
Cc1ccc(Cn2c(C)c3cnn(CC(=O)NC4CCCC4)c(=O)c3c2C)cc1,-7,-3,-1,-5,.,.
CNC(=O)Cn1ncc2c(C)n(Cc3ccc(C)cc3)c(C)c2c1=O,1,-1,-3,14*,-2,0
CC1CN(C(=O)c2ccccc2)OC(c2ccc3c(c2)OCO3)O1 (stereo not given),-4,6,-2,15*,-3,-1
CC=Cc1ccc2n(c1=O)C[C@H]1[C@H](CO)[C@@H](C(=O)NC3CCC3)[C@@H]2N1Cc1ccccc1 (mixture of isomers),.,.,1,.,.,.
O=C(CSc1nc2ccc(Nc3nc(N4CCOCC4)nc(N4CCOCC4)n3)cc2s1)Nc1ccccc1F,-2,9,5,16*,5,-10
O=C(CSc1nc2ccc(Nc3nc(N4CCOCC4)nc(N4CCOCC4)n3)cc2s1)Nc1ccccc1Cl,-12,6,3,-3,.,.
COC(=O)c1cc2occc2n1CC(=O)Nc1ccc(C)cc1C,14,1,-4,14*,5,1

# Some of these compounds in order of length of the SMILES, largest number first.
SMILES,Yeast UUG start,Tn6 DDE FP,PglD inh,DDE Tn7 FP inh,Tn7 DDE conf,Tn7 DDE ctr
C[C@H]1CN([C@@H](C)CO)C(=O)c2cc(NS(=O)(=O)c3ccc(Cl)cc3)ccc2O[C@@H]1CN(C)Cc1ccc(C(F)(F)F)cc1,2,.,.,.,.,.
O=C(CSc1nc2ccc(Nc3nc(N4CCOCC4)nc(N4CCOCC4)n3)cc2s1)Nc1ccccc1Cl,-12,6,3,-3,.,.
COC(=O)c1ccc(Cn2c(C)c(C(=O)NCc3ccc(C#N)cc3)sc2=O)o1,-14,-4,-3,14*,5,-1
CNC(=O)Cn1ncc2c(C)n(Cc3ccc(C)cc3)c(C)c2c1=O,1,-1,-3,14*,-2,0
COC(=O)c1cc2occc2n1CC(=O)Nc1ccc(C)cc1C,14,1,-4,14*,5,1
FC(F)(F)c1cc(NCc2cccs2)n2ncnc2n1,-12,5,-1,15*,-6,-9

# Later entries:
SMILES,Yeast UUG start,Tn6 DDE FP,PglD inh,DDE Tn7 FP inh,Tn7 DDE conf,Tn7 DDE ctr
COC(=O)c1cc2occc2n1Cc1ccc(Cl)cc1,.,3,.,0,.,.
N#Cc1ccc(Cl)cc1NC(=O)COC(=O)c1cccc(S(=O)(=O)N2CCOCC2)c1,1,4,-1,14*,6,-5
O=C(COc1ccc(Oc2ccccc2)cc1)NCc1cn2ccccc2n1,.,5,.,16*,-7,-10
COc1cc(OC)c(CNC2CCCCCC2)cc1Br,.,-3,.,15*,2,1
COc1cccc(S(=O)(=O)N[C@H]2CC[C@H](CCNC(=O)Cc3ccncc3)O[C@@H]2CO)c1,4,.,-3,.,.,.
CC(OC(=O)c1ccco1)C(=O)Nc1ccc(Cl)cn1 (stereo not given),-12,1,-2,15*,-3,-7
C[C@H]1CCCCO[C@H](CN(C)C(=O)c2ccccc2)[C@@H](C)CN([C@@H](C)CO)C(=O)c2cc(NC(=O)Nc3ccc4c(c3)OCO4)ccc2O1,-9,.,2,.,.,.
O=C(c1ccccn1)N1C[C@H]2[C@@H](c3ccccc31)[C@@H](CO)N2C(=O)C1CCOCC1,-13,.,0,.,.,.
Cc1ccc(-c2csc3ncnc(SCC(N)=O)c23)cc1,.,5,.,16*,1,-1
CNCCC1Sc2ccccc2Oc2ccccc21 (stereo not given),-15,9,5,14*,-1,-2
CN(C)CCCC1Sc2ccccc2Sc2ccccc21 (stereo not given),.,-1,.,-7,.,.
C[C@@H]1CN([C@H](C)CO)C(=O)c2cc(C#CC3CCCC3)cnc2O[C@H]1CN(C)C(=O)Nc1ccccc1,5,.,2,.,.,.
CC(CCc1ccco1)NC(=O)Cn1ncc2c(=O)oc3ccccc3c21 (stereo not given),0,-6,0,15*,0,-4
CC(C)OCCCNC(=O)Cn1ncc2c(=O)oc3ccccc3c21,-7,4,-2,4,.,.
C[C@@H]1CN([C@H](C)CO)C(=O)c2cc(N(C)C)ccc2O[C@@H](C)CCCCO[C@H]1CN(C)S(=O)(=O)c1ccccc1,18,.,1,.,.,.
COc1ccc(CC(=O)NCc2n[nH]c(=S)n2-c2ccccc2OC)cc1,.,2,.,15*,-4,-16
C[C@@H]1CN([C@H](C)CO)C(=O)c2cc(C#CCN(C)C)cnc2O[C@H]1CN(C)Cc1ccccn1,-25,.,3,.,.,.
CC(C)c1nnc(N2C(=O)C(O)=C(C(=O)c3cccs3)C2c2ccccc2)s1 (stereo not given),.,-6,.,30*,3,0
Cc1ccccc1NC(=O)COc1coc(CN2CCCc3ccccc32)cc1=O,-19,2,0,15*,1,-4
COc1cc(C)c(Cl)c(C)c1S(=O)(=O)NCc1ccc2c(c1)OCO2,-17,3,4,16*,-1,-6
COc1cc(C)c(S(=O)(=O)NCc2ccc3c(c2)OCO3)cc1C,12,-8,-2,3,.,.

# Bioassay records deposited in PubChem BioAssay by several laboratories.
